Laboratory results: PMC11124870, “Effect of Antioxidants in Medicinal Products on Intestinal Drug Transporters” (Pharmaceutics, 2024)

Sequences of proteins named here, by UniProt entry; tags and fusion partners are left off. A change or cut given only in a name is not applied to a line headed by its entry.
UniProt O94956: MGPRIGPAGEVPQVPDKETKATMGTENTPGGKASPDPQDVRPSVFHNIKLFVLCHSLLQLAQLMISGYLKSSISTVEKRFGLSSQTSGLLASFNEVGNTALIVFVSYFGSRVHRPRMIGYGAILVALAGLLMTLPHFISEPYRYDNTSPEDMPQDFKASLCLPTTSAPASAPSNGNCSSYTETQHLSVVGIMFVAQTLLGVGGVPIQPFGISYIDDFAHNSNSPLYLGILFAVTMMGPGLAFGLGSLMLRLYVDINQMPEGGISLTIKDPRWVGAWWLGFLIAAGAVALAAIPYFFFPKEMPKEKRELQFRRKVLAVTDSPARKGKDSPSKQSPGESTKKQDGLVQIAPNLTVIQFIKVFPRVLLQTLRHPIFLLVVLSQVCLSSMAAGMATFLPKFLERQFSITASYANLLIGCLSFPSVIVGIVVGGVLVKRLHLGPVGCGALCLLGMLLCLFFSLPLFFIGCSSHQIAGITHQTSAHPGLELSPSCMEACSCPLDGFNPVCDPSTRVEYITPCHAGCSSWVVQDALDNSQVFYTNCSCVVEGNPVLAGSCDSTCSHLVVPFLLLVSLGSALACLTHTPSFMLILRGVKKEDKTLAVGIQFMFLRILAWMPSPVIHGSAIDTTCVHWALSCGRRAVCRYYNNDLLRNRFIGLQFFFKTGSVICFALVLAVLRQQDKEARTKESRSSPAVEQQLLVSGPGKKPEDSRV

Tests used:
OATP2B1 = OATP2B1 (Homo sapiens, UniProt O94956); experiment: Uptake transporter assay, 3H-estrone sulfate uptake in HEK-293-OATP2B1 cells; settings: antioxidant 200 µM, uptake with DMSO set as 100%, mean ± SD, three replicates
OATP2B1, P-gp, and BCRP = settings: cited from earlier work

| Structure (SMILES) | % Uptake of 3H-ES OATP2B1 (OATP2B1) [%] | Inhibition of intestinal transporters, previous assessment (OATP2B1, P-gp, and BCRP) |
| --- | --- | --- |
| Cl.N[C@@H](CS)C(=O)O [Cysteine hydrochloride] | 106.5 ± 14.8 | – |
| Cc1cc(C(C)(C)C)c(O)c(C(C)(C)C)c1 [Butylated hydroxytoluene (BH), Butylated hydroxytoluene] | – | found not to inhibit these transporters |
